From ChEMBL document CHEMBL1143946, “Docking analyses on human muscarinic receptors: unveiling the subtypes peculiarities in agonists binding” (Bioorg Med Chem, 2008)

Chains of the proteins cited; added tags and fusions are not shown.
UniProt P08172, whole entry: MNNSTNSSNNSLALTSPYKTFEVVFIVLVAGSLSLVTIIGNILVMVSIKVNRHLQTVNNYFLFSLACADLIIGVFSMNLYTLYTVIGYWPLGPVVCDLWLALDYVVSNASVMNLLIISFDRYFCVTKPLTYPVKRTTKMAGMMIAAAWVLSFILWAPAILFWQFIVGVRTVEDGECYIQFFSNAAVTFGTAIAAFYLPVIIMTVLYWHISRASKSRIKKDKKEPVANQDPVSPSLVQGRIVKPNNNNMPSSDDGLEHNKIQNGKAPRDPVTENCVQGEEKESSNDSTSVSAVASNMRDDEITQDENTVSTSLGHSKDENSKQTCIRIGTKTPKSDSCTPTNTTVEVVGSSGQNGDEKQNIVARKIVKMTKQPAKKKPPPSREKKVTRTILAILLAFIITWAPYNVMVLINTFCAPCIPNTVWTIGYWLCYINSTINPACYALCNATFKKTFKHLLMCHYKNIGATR

Molecular target: Muscarinic acetylcholine receptor M2 (Homo sapiens, UniProt P08172)
Experiment: biochemical

**Q.** How did the Ki turn out when CCCCCCOc1nsnc1C1=CCCN(C)C1 [XANOMELINE] was run?
**A.** Its Ki is 0.0117 µM.
